Binding of CDR-mutated scFvs to a peptide of the spike HR2 region

Reference: Li et al. 2023, doi:10.1038/s41467-023-39022-2. File: FLAb, binding data.

Antigen: PDVDLGDISGINAS, a 14-residue peptide of the SARS-CoV-2 spike HR2 region.

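Phage display of a naive human antibody library on the peptide gave the parent. These sequences belong to a second round, designed from the earlier measurements on random variants of the parent. Their group label is 14H_GPLM_Gen (GPLM: also part of the Gaussian process libraries; Gen: genetic algorithm; a sequence that several methods proposed may carry one label only). The scFvs were displayed on barcoded MATa yeast, the peptide on MATalpha yeast. Binding brings cells together so that they mate, and sequencing counts the barcode pairs among the diploids. Scores were corrected for input abundance and mapped to Kd with protein pairs of known affinity run in the same pool. Mating was done six times.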

Parent scFv Ab-14: VH joined to VL by three GGGGS repeats. Changes lie in the heavy chain CDRs alone.
VH: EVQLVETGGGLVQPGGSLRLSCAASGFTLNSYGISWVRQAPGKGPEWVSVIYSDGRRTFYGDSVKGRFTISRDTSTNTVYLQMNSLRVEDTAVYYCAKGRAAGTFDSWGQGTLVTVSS
VL: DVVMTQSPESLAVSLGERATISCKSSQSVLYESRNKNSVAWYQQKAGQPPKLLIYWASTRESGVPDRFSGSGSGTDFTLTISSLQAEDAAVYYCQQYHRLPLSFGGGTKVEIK

The parent's heavy chain CDRs are GFTLNSYGIS, VIYSDGRRTFYGDSVK, GRAAGTFDS; each variant's own CDRs replace them letter for letter. Values are log10 of the apparent Kd in nM; lower means stronger binding. A mean of the replicates is given; it leaves out those without a signal. "nd" means that the variant was in the library but no mating with the target was seen in that replicate; the authors take this as a sign of poor binding, and no number exists. The authors' rule: three or more of the six replicates give a measured affinity, fewer mean a poor binder. The range of this assay differs from that of the first round, and the authors advise against merging the two. Background: pairings of all heavy chain designs with three empty control strains gave a value in 1% of cases (median 2.08, 5th percentile 0.84). Values in that range, when seen in few replicates, are hard to tell from nonspecific mating. The control count says in how many pairings with the empty strains this scFv gave a signal. Of ten entries with the parent sequence, four were seen in most replicates (averages 0.34 to 2.37), three in one and three in none, so single entries are noisy.

With WFSLNSYGIS, VIYSDGRRTFYADSVK, GRTAGTFDS the result was 1.77, 1.43, 1.24, 1.37, 1.00, 0.94 (mean 1.29; controls 1 of 18).
With GFSLNYYGIS, VIYSDGRRTFYGDSVK, GRTAGTFDT the result was 0.60, 1.08, nd, 1.69, 1.42, 1.26 (mean 1.21; controls 0 of 18).
With GFVLNSYGIS, VIYSDGRRTFYGDSVK, GQTAGTFDS the result was nd, 2.83, 1.12, nd, nd, 1.96 (mean 1.97; controls 0 of 18).
With GFHLNSYGIS, VIYSDGRRTFYADSVK, GVAAGTFDS the result was 0.70, 0.32, 0.23, 1.11, 0.83, 0.63 (mean 0.64; controls 1 of 18).
With GFSLNEYGIS, VIYSDGRRTFYGDSVK, GRLAGTFDT the result was -1.06, -1.40, -0.93, -1.56, -1.68, -0.63 (mean -1.21; controls 0 of 18).
With GFSLNSYGIS, VIYSDGRRTFYADSVK, GHAAGTFDQ the result was 0.79, 1.34, 1.08, 0.88, 0.49, 0.58 (mean 0.86; controls 2 of 18).
With GFTLNSYGIS, VIYSDGRRTFYADSVK, GRTAGTFDS the result was 1.62, 1.96, 3.70, nd, 1.47, 1.29 (mean 2.01; controls 1 of 18).
With GFSLNSYGIS, VIYSDGRRTFYGDSVK, GNAAGTFDS the result was 0.66, 0.86, 0.49, 0.56, 0.56, 0.85 (mean 0.66; controls 0 of 18).
With GFSLNSYGIS, VIYSDGRRTFYADSVK, GWAAGTFDN the result was 0.13, 0.09, nd, -0.45, nd, -0.12 (mean -0.09; controls 0 of 18).
With GFELNSYGIS, VIYSDGRRTFYGDSVK, GQAAGTFDL the result was 1.01, 1.61, 1.69, 0.99, 0.70, 1.11 (mean 1.18; controls 0 of 18).
With GFTLNSYGIS, VIYSDGMRTFYSDSVK, GKAAGTFDS the result was -0.02, nd, nd, nd, 0.38, 0.89 (mean 0.42; controls 0 of 18).
With GFSLNSYGIS, VIYSDGRRTFYADSVK, GKAAGTFDA the result was 0.12, 0.11, 0.08, 0.06, 0.15, 0.54 (mean 0.18; controls 0 of 18).
With GFSLNEYGIS, VIYSDGWRTFYGDSVK, GRTAGTFDS the result was 0.07, -0.10, -0.27, 0.00, 0.22, 0.20 (mean 0.02; controls 0 of 18).
With GFSLKSYGIS, VIYSDGRRTFYADSVK, GKAAGTFDS the result was nd, 1.82, nd, 0.46, nd, 0.61 (mean 0.96; controls 0 of 18).
With GFSLNSYGIS, VIYSDGRRTFYTDSVK, GRTAGTFDS the result was 1.60, nd, 1.57, 4.00, 1.64, 2.59 (mean 2.28; controls 0 of 18).
With GFSLNSYGIS, VIYSDGRRTFYADSVK, GTAAGTFDS the result was 0.10, -0.06, -0.17, -0.19, 0.26, -0.01 (mean -0.01; controls 0 of 18).
With GFSLNEYGIS, VIYSDGRRTFYADSVK, GRHAGTFDS the result was 0.14, 0.35, 0.12, 0.15, -0.11, 0.49 (mean 0.19; controls 1 of 18).
With GFDLNSYGIS, VIYSDGRRTFYADSVK, GEAAGTFDS the result was 0.76, 0.89, 0.35, 0.47, 0.99, 1.02 (mean 0.75; controls 0 of 18).
With GFDLNSYGIS, VIYSDGRRTFYADSVK, GAAAGTFDS the result was 0.52, 0.00, 0.16, -0.04, 0.03, -0.11 (mean 0.09; controls 0 of 18).
With GFWLNEYGIS, VIYSDGRRTFYGDSVK, GQAAGTFDL the result was 2.92, 1.53, 1.79, nd, 2.10, 2.54 (mean 2.18; controls 0 of 18).
With GFHLNSYGIS, VIYADGRRTFYGDSVK, GEAAGTFDS the result was -0.04, -0.39, -0.41, 0.02, -0.21, -0.22 (mean -0.21; controls 2 of 18).
With GFHLNSYGIS, VIYSDGRRTFYDDSVK, GKTAGTFDS the result was nd, 1.68, 2.23, 1.57, 2.22, 2.30 (mean 2.00; controls 0 of 18).
With GFNLNSYGIS, VIYSDGRRTFYKDSVK, GQTAGTFDS the result was 0.59, 0.13, 0.39, 0.04, 0.19, 0.40 (mean 0.29; controls 2 of 18).
With GFSLNSYGIS, VIYADGRRTFYGDSVK, GVAAGTFDS the result was 0.23, 0.18, -0.38, -0.64, -0.30, -0.05 (mean -0.16; controls 1 of 18).
With GFSLNSYGIS, VIYSDGRRTFYGDAVK, GKAAGTFDS the result was 0.49, 0.60, -0.08, 0.41, 1.00, 0.28 (mean 0.45; controls 1 of 18).
With GFTLNSYGIS, VIYADGQRTFYGDSVK, GRAAGTFDS the result was 0.16, -0.33, 0.51, -0.15, -0.11, 0.36 (mean 0.07; controls 0 of 18).
With GFNLNSYGIS, VIYSDGRRTFYADSVK, GRYAGTFDS the result was 1.22, 1.10, 0.93, 0.42, 1.24, 0.97 (mean 0.98; controls 0 of 18).
With GFTLNEYGIS, VIYSDGRRTFYGDSVK, GRTAGTFDK the result was 0.00, -0.15, 0.05, 0.60, -0.48, 0.81 (mean 0.14; controls 0 of 18).
With GFSLNDYGIS, VIYSDGRRTFYGDTVK, GRTAGTFDS the result was 0.08, 0.15, -0.18, -0.31, 0.05, 0.41 (mean 0.03; controls 1 of 18).
With GFNLNSYGIS, VIYSDGRRTAYGDSVK, GRAAGTFDS the result was 1.52, 0.89, 1.03, 0.87, 1.85, 0.67 (mean 1.14; controls 0 of 18).
With GFLLNSYGIS, VIYSDGRRTFYADSVK, GRTAGTFDS the result was 0.76, 0.32, 0.10, -0.19, 0.03, 0.42 (mean 0.24; controls 0 of 18).
With GFSLNNYGIS, VIYSDGRRTFYTDSVK, GQAAGTFDS the result was 0.81, 0.12, -0.03, 0.15, 0.13, 0.43 (mean 0.27; controls 2 of 18).
With GFSLNSYGIS, VIYSDGRRTFYTDSVK, GHAAGTFDS the result was 0.65, 1.20, 0.74, 0.56, nd, 0.76 (mean 0.78; controls 0 of 18).
With GFELNSYGIS, VIYSDGRRTFYTDSVK, GQAAGTFDS the result was 0.21, 0.50, 0.96, -0.29, 0.23, 0.14 (mean 0.29; controls 0 of 18).
With GFSLNDYGIS, VIYSDGRRTFYGDSVK, GRHAGTFDS the result was 0.41, nd, nd, 0.78, -0.23, -0.04 (mean 0.23; controls 0 of 18).
With GFSLNEYGIS, VIYSDGRRTFYGDSVK, GRYAGTFDT the result was 0.87, nd, 0.84, 0.05, -0.11, 1.44 (mean 0.62; controls 1 of 18).

The closing 5 entries, repeated:

CDR-H1	CDR-H2	CDR-H3	log10 Kd, replicates	log10 Kd (nM), mean	empty controls
GFSLNNYGIS	VIYSDGRRTFYTDSVK	GQAAGTFDS	0.81, 0.12, -0.03, 0.15, 0.13, 0.43	0.27	2/18
GFSLNSYGIS	VIYSDGRRTFYTDSVK	GHAAGTFDS	0.65, 1.20, 0.74, 0.56, nd, 0.76	0.78	0/18
GFELNSYGIS	VIYSDGRRTFYTDSVK	GQAAGTFDS	0.21, 0.50, 0.96, -0.29, 0.23, 0.14	0.29	0/18
GFSLNDYGIS	VIYSDGRRTFYGDSVK	GRHAGTFDS	0.41, nd, nd, 0.78, -0.23, -0.04	0.23	0/18
GFSLNEYGIS	VIYSDGRRTFYGDSVK	GRYAGTFDT	0.87, nd, 0.84, 0.05, -0.11, 1.44	0.62	1/18